Source: paper PMC8380238, “Structure-based virtual screening of CYP1A1 inhibitors: towards rapid tier-one assessment of potential developmental toxicants” (Archives of Toxicology, 2021)

Target: T1, human recombinant CYP1A1 (rCYP1A1) (Homo sapiens, UniProt P04798)
T1 sequence (P04798 1-512): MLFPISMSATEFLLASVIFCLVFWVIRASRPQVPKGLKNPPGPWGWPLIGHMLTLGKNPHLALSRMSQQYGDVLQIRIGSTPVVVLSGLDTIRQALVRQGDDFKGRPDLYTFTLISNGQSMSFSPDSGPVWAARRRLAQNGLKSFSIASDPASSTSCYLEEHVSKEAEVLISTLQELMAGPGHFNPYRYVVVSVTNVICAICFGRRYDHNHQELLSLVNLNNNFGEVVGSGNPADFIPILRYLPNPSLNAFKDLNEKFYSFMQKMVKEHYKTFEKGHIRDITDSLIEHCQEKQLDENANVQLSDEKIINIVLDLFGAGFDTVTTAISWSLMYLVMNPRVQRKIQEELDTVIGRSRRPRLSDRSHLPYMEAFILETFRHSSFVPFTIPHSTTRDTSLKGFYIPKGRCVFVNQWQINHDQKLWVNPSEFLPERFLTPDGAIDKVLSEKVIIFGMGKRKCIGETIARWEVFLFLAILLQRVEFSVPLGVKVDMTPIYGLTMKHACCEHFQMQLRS
Assay: CYP1A1 activity assay repeated at six CEC concentrations (Ki, α, mode of inhibition)

SMILES | α (degree to which the binding of inhibitor changes the affinity of the enzyme for substrate)
CC(O)(CS(=O)(=O)c1ccc(F)cc1)C(=O)Nc1ccc(C#N)c(C(F)(F)F)c1 (centres unmarked) [Bicalutamide, reference compound] | 2.7
CCOC(=O)c1ccccc1C(=O)OCC [Diethyl phthalate] | 8.4
